Laboratory results from patent publication US8541471B2, “Water-soluble strontium salts for use in treatment of cartilage and/or bone conditions” (Osteologix A/S, priority 2003, dated 2013).

Experiments:
[1] = rat, in vivo, po

## strontium alpha-ketoglutarate [α-ketogluterate]
other
  SOLUBILITY AT 40° C. pH 7.5: 3809 mg/L
  SOLUBILITY AT ROOM TEMPERATURE (22-24° C.) pH 7.5: 2252 mg/L
[1]
  AUC: 9000 mg·min/L
